Data on one substance can be found in paper PMC7864078.

What is called stoichiometry N is a count of units in the complex or per binding partner.

Assay [1] concerns the target Staphylococcus epidermidis RNase J1 (full-length, amino acids 1-560) (Staphylococcus epidermidis) (UniProt Q5HQ80). In words: SEC-MALS; miniDAWN TREOS; same Superdex200 column and buffer as the SEC (50 mM Tris-HCl pH 8.0, 250 mM NaCl, 10% glycerol, 4 mM β-ME, 0.5 mM TCEP, 5 mM MgCl2).
The target is the same in assay [2]. The assay is described as follows: SEC; analytical Superdex200; 250 μg of each freshly purified enzyme injected separately; 50 mM Tris-HCl pH 8.0, 250 mM NaCl, 10% glycerol, 4 mM β-ME, 0.5 mM TCEP, 5 mM MgCl2. For orientation: Size exclusion chromatography separates by hydrodynamic size, large species first.

As for “Staphylococcus epidermidis RNase J1 (full-length, amino acids 1-560) (from UniProt Q5HQ80 1-560) (enzyme)”, the stoichiometry N in assay [1] and in assay [2] was 2 each time.
